Data: article PMC11513854, “De novo GTP synthesis is a metabolic vulnerability for the interception of brain metastases” (Cell Reports Medicine, 2024)

Tested on: MDR1-MDCKII cells
Assay: Bi-directional permeability via MDR1-MDCKII cells
Type: in vitro ADME
Procedure: MDR1-MDCKII permeability assays were performed by Wuxi AppTec Co. Briefly, MDR1-MDCK1 cells were seeded onto polycarbonate membranes in 96-well insert system plates and allowed to develop into monolayers. […] The plate was incubated for 2.5 h (37°C, 5% CO2) and the media was sampled on either side and the compound present was quantified by LC-MS/MS and the concentrations were used to calculate the efflux ratio. Digoxin (10 μM), nadolol (2 μM), and metoprolol (2 μM) were used as controls.

SMILES: COc1c(C)c2c(c(O)c1C/C=C(\C)CCC(=O)O)C(=O)OC2 [MPA, Mycophenolic acid]
- Rank of Papp: High
- permeability for entering the brain (MDCK-MDR1 cell monolayer model): high permeability
